Screens as filed in PubChem.
A selection: hits, their analogues and other compounds. The true share with any hit is near 1.8%.
RAD52 anneal inh = RAD52 (human) annealing inhibition | inhibition, % at 18.7 µM | actives 0.46% (n = 360,000) | recombinant RAD52 DNA annealing, FRET fluorescence;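 active means every replicate showing at least 50% inhibition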
SIRT5 block = inhibitors of human sirtuin-5 desuccinylase; inhibition, % at 15 µM; actives 1.1% (n = 330,000); Purified SirT5, succinyl-peptide AMC, trypsin-coupled fluorescence; Q9NXA8; AID 652115; in the data active means inhibition above about 15%
Yeast UUG start = alters start codon recognition fidelity in yeast | S. cerevisiae UUG-firefly luciferase reporter, luminescence/redox ratio | activity score, % at 18.7 µM | 350,000 compounds, 0.13% hits | AID 602363;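 active = replicate mean at a twofold rise or more, about +100% in these data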;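 note: firefly luciferase made from a UUG start codon reports start codon fidelity; reporter light over untreated wells divided by growth signal over untreated wells; some hits fall short of that in this replicate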
AF4-AF9 inh = MLL-AF4/AF9 protein interaction inhibition; P42568; AlphaScreen, biotin-AF4 peptide binding to FLAG-AF9; inhibition, % at 10 µM; actives 0.47% (n = 350,000);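 active means every replicate reaching a set inhibition limit, whatever the replicate mean, cut at about 25% in these data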;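 further: 0% = plate neutral control median and 100% = total signal loss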
E-sel inducer = induces E-selectin expression in human endothelial cells; P16581; HUVEC E-selectin immunofluorescence imaging; normalized: neutral wells 0, TNF-alpha wells 100; activation, % at 7.58 µM; actives 0.37% (n = 260,000);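 active means mean E-selectin-positive cell signal at least 10% of the positive control, reached in at least 60% of replicates, without over 20% cell loss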
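Test system: HUVEC; input: 3,000 HUVEC/well; measured by: immunofluorescence imaging; read-out: % PE-positive cells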
RAD54 inh = blocks human RAD54 Holliday junction branch migration; inhibition, % at 10.4 µM; actives 0.14% (n = 360,000); FAM/BHQ fluorescence; Q92698;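 active means mean normalized replicate activity at least 40 and at least half of replicates scoring 40 or more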;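 further: 0% = median of neutral control wells and 100% = median of positive control wells; inhibitors cause a drop in the FAM fluorescence signal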
* hit, by the source's call; . = no result given.

Start of the data: the first two compounds as a preview:
| no. | Structure | RAD52 anneal inh | SIRT5 block | Yeast UUG start |
| --- | --- | --- | --- | --- |
| 1 | CCN(C[C@H]1[C@@H](c2ccc(-c3ccccc3F)cc2)[C@@H](CO)N1C(C)=O)C(C)=O | -16 | 22* | . |
| 2 | CCC(=O)N1[C@H](CO)[C@H](c2ccc(-c3ccccc3)cc2)[C@H]1CN(CC)C(C)=O | -18 | 30* | -6 |

| no. | AF4-AF9 inh | E-sel inducer | RAD54 inh |
| --- | --- | --- | --- |
| 1 | 0 | 0 | . |
| 2 | 1 | 0 | 0 |

This part in full, previewed entries included:
| no. | Structure | RAD52 anneal inh | SIRT5 block | Yeast UUG start |
| --- | --- | --- | --- | --- |
| 1 | CCN(C[C@H]1[C@@H](c2ccc(-c3ccccc3F)cc2)[C@@H](CO)N1C(C)=O)C(C)=O | -16 | 22* | . |
| 2 | CCC(=O)N1[C@H](CO)[C@H](c2ccc(-c3ccccc3)cc2)[C@H]1CN(CC)C(C)=O | -18 | 30* | -6 |
| 3 | CCN(C[C@H]1[C@@H](c2ccc(-c3ccccc3)cc2)[C@@H](CO)N1C(C)=O)C(C)=O | 0 | -1 | . |
| 4 | O=C(NC1CCCCC1)N1CC2(C1)[C@H](c1ccccc1)[C@H](CO)N2CC1CCCC1 | -22 | 1 | . |
| 5 | C[C@@H]1CN([C@@H](C)CO)C(=O)Cc2cc(NS(=O)(=O)c3cn(C)cn3)ccc2O[C@@H]1CN(C)C(=O)NC1CCCCC1 | . | . | -4 |
| 6 | C[C@@H]1CN([C@@H](C)CO)C(=O)c2cc(NC(=O)CCC(F)(F)F)ccc2O[C@@H](C)CCCCO[C@@H]1CN(C)Cc1ccccc1 | . | . | . |
| 7 | COc1ccccc1Cc1c(-c2cccc(Br)c2)nc2c(C)cc(Br)cn12 | -61 | 19* | 5 |
| 8 | COc1ccccc1Cc1c(-c2ccc(Cl)cc2)nc2c(C)cc(Br)cn12 | -47 | 0 | 6 |
| 9 | O=C(C[C@@H]1C=C[C@H](NC(=O)C2CCOCC2)[C@H](CO)O1)NCC1CCCCC1 | -6 | -2 | -12 |
| 10 | O=C(NCCN1CCCC(O)C1)c1cc(COc2ccc(F)cc2Cl)on1 (stereo unspecified) | -33 | 24* | . |
| 11 | COc1ccc(OCc2cc(C(=O)NCCN3CCCC(O)C3)no2)c(Cl)c1 (stereo unspecified) | -9 | 1 | -8 |
| 12 | O=C(C[C@H]1CC[C@H](NC(=O)C2CCOCC2)[C@H](CO)O1)NCC1CCCCC1 | -3 | -8 | -24 |

| no. | AF4-AF9 inh | E-sel inducer | RAD54 inh |
| --- | --- | --- | --- |
| 1 | 0 | 0 | . |
| 2 | 1 | 0 | 0 |
| 3 | -1 | 0 | . |
| 4 | -1 | 0 | . |
| 5 | . | 3 | -2 |
| 6 | -2 | 0 | . |
| 7 | 1 | 4 | 1 |
| 8 | -3 | . | -1 |
| 9 | -2 | 1 | -6 |
| 10 | 2 | . | . |
| 11 | 0 | 0 | 4 |
| 12 | 0 | 0 | -6 |

Additional compounds.
| no. | Structure | RAD52 anneal inh | SIRT5 block | Yeast UUG start |
| --- | --- | --- | --- | --- |
| 13 | Oc1ccc(-c2nc3ccccc3s2)c(O)c1 | -25 | -14 | . |
| 14 | Oc1ccc(-c2cnns2)c(O)c1 | -8 | 31* | . |
| 15 | O=S(=O)(O)c1cc(O)c2cc(Nc3ccccc3)ccc2c1 | -23 | . | 6 |
| 16 | O=S(=O)(O)c1ccc(O)c2cc(Nc3ccccc3)ccc12 | 5 | 63* | 14 |
| 17 | O=C(c1cncc(Br)c1)N1CCN(S(=O)(=O)c2ccccc2C(F)(F)F)CC1 | -13 | 0 | . |
| 18 | CC(C)(C)OC(=O)CC[C@@]12N=C(c3ccc(OCCCO)cc3)O[C@@H]1c1ccccc1CN(C(=O)c1ccccc1)C2=O | -28 | 6 | 1 |
| 19 | COC(=O)c1cc(OC)c(OC)cc1NC(=O)c1cc(OC)cc(OC)c1 | -10 | 16* | . |
| 20 | CSc1ccc(/C=N/NC(=O)c2ccc3nc[nH]c3c2)cc1 | 10 | . | -21 |
| 21 | Cc1noc(C)c1S(=O)(=O)N(C)C[C@@H]1Oc2ccc(NC(=O)CCN3CCOCC3)cc2CC(=O)N([C@@H](C)CO)C[C@@H]1C | -7 | . | . |
| 22 | Cc1ccc(S(=O)(=O)N2CCC(C(=O)NCc3cccnc3)CC2)cc1 | 8 | -1 | 1 |
| 23 | CCOc1ccc(S(=O)(=O)N2CCC(C(=O)NCc3cccnc3)CC2)cc1 | -3 | 6 | -4 |
| 24 | COc1ccccc1NC(=O)COC(=O)c1[nH]c(=O)[nH]c(=O)c1N | -15 | 17* | -7 |

| no. | AF4-AF9 inh | E-sel inducer | RAD54 inh |
| --- | --- | --- | --- |
| 13 | -15 | 3 | . |
| 14 | 9 | 2 | . |
| 15 | 3 | 0 | 12 |
| 16 | 4 | 1 | 19 |
| 17 | -1 | 33* | . |
| 18 | 3 | . | 6 |
| 19 | -1 | . | . |
| 20 | 0 | 40* | -4 |
| 21 | 2 | -9 | . |
| 22 | 1 | . | 4 |
| 23 | -1 | 41* | -3 |
| 24 | 2 | . | -5 |

(cont.)
| no. | Structure | RAD52 anneal inh | SIRT5 block | Yeast UUG start |
| --- | --- | --- | --- | --- |
| 25 | COc1ccccc1NC(=O)COC(=O)c1ccc([N+](=O)[O-])s1 | 3 | 23* | . |
| 26 | COCC#Cc1cnc2c(c1)C(=O)N([C@@H](C)CO)C[C@@H](C)[C@@H](CN(C)S(=O)(=O)c1cn(C)cn1)O2 | 3 | -5 | 0 |
| 27 | Nc1ccccc1C(=O)N=Nc1[nH]c(N)c2ccccc12 | -16 | 18* | . |
| 28 | CC(=O)Nc1ccc2c(c1)C(=O)N(C)[C@H]1CC[C@@H](CC(=O)NCC3CCCCC3)O[C@H]1CO2 | . | . | -8 |
| 29 | O=C1CN(Cc2ccccc2)C[C@H]2[C@@H](c3ccc(-c4ccccc4)cc3)[C@H](CO)N12 | -3 | -5 | . |
| 30 | O=C1CN(Cc2ccccc2)C[C@@H]2[C@H](c3ccc(-c4ccccc4)cc3)[C@H](CO)N12 | -9 | 22* | . |
| 31 | O=C1CN(S(=O)(=O)Cc2ccccc2)C[C@@H]2[C@@H](c3ccc(C#Cc4ccc(F)cc4)cc3)[C@H](CO)N12 | -1 | 9 | . |
| 32 | Cc1ccc(CN2CC(=O)N3[C@H](C2)[C@H](c2ccc(-c4ccccc4F)cc2)[C@@H]3CO)cc1 | -4 | -4 | . |
| 33 | Cc1ccc(CN2CC(=O)N3[C@@H](CO)[C@H](c4ccc(-c5ccccc5F)cc4)[C@@H]3C2)cc1 | -10 | 15* | . |
| 34 | O=C1CN(S(=O)(=O)Cc2ccccc2)C[C@H]2[C@@H](c3ccc(C#Cc4ccccc4)cc3)[C@H](CO)N12 | -16 | 16* | . |
| 35 | COc1ccc(S(=O)(=O)Nc2cccc3c2O[C@@H](CN(C)S(=O)(=O)c2cn(C)cn2)[C@H](C)CN([C@@H](C)CO)C3=O)cc1 | 5 | -1 | -3 |
| 36 | C[C@@H]1CN([C@@H](C)CO)S(=O)(=O)c2ccc(-c3ccc(C(=O)N(C)C)cc3)cc2O[C@H]1CN(C)C(=O)C1CC1 | . | . | . |

| no. | AF4-AF9 inh | E-sel inducer | RAD54 inh |
| --- | --- | --- | --- |
| 25 | -8 | 2 | . |
| 26 | -3 | 0 | 5 |
| 27 | 2 | . | . |
| 28 | . | 0 | -7 |
| 29 | 4 | 1 | . |
| 30 | . | 0 | . |
| 31 | -2 | -1 | . |
| 32 | 4 | 0 | . |
| 33 | 8 | 0 | . |
| 34 | -2 | 0 | . |
| 35 | -2 | 0 | -1 |
| 36 | . | 0 | . |

Some of these compounds in order of the Yeast UUG start value, low to high:
| entry | Structure | Yeast UUG start |
| --- | --- | --- |
| 28 | CC(=O)Nc1ccc2c(c1)C(=O)N(C)[C@H]1CC[C@@H](CC(=O)NCC3CCCCC3)O[C@H]1CO2 | -8 |
| 35 | COc1ccc(S(=O)(=O)Nc2cccc3c2O[C@@H](CN(C)S(=O)(=O)c2cn(C)cn2)[C@H](C)CN([C@@H](C)CO)C3=O)cc1 | -3 |
| 26 | COCC#Cc1cnc2c(c1)C(=O)N([C@@H](C)CO)C[C@@H](C)[C@@H](CN(C)S(=O)(=O)c1cn(C)cn1)O2 | 0 |

The listing continues.
| no. | Structure | RAD52 anneal inh | SIRT5 block | Yeast UUG start |
| --- | --- | --- | --- | --- |
| 37 | COc1cccc(C(=O)OCCCN(C)C)c1 | -4 | 15* | . |
| 38 | Cc1ccc(-c2ccc(CN3C(C(C)C)C(=O)N(Cc4cn(CCC5OCCO5)nn4)CCS3(=O)=O)cc2)c(C)c1 (stereo unspecified) | 1 | 26* | -12 |
| 39 | Cc1ccc(-c2ccc(CN3C(C)C(=O)N(Cc4cn(Cc5ccco5)nn4)CCS3(=O)=O)cc2)cc1 (stereo unspecified) | 4 | 6 | -4 |
| 40 | Cc1ccc(-c2ccc(CN3C(C)C(=O)N(Cc4cn(Cc5ccco5)nn4)CCS3(=O)=O)cc2)c(C)c1 (stereo unspecified) | -10 | 27* | -9 |
| 41 | CC(C)CC1C(=O)N(Cc2cn(Cc3ccco3)nn2)CCS(=O)(=O)N1Cc1ccc(-c2ccc(F)cc2)cc1 (stereo unspecified) | -24 | 18* | -5 |
| 42 | CN1CCN(C(=O)C[C@H]2C=C[C@H](NC(=O)c3ccc4c(c3)OCO4)[C@H](CO)O2)CC1 | 3 | 2 | -16 |
| 43 | O=C(Cc1nnc(NC(=O)Nc2ccc(Cl)cc2)s1)NCc1ccccc1 | 0 | 38* | . |
| 44 | O=C(Cc1nnc(NC(=O)Nc2ccccc2)s1)NCc1ccccc1 | -6 | -3 | . |

| no. | AF4-AF9 inh | E-sel inducer | RAD54 inh |
| --- | --- | --- | --- |
| 37 | -3 | . | . |
| 38 | 5 | 0 | 5 |
| 39 | 0 | 0 | 5 |
| 40 | 3 | 0 | 6 |
| 41 | -1 | 0 | 8 |
| 42 | -10 | -1 | -5 |
| 43 | -6 | . | . |
| 44 | 0 | . | . |
